Laboratory results reported in patent publication US9873693B2 (Sunesis Pharmaceuticals, Inc., priority 2006, dated 2018).

Protein sequences, listed by entry. Tags and fused reporters are not part of them. Residues count along the entry.
UniProt O15530, 51-360: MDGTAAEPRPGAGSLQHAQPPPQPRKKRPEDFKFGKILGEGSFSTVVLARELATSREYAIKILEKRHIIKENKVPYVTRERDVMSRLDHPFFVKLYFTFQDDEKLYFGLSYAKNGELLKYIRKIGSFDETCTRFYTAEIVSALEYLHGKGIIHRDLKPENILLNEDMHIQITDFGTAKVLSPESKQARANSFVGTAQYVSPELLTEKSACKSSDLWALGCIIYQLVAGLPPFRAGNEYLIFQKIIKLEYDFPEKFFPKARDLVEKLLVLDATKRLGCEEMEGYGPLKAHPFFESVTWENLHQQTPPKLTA

Molecular target: phosphorylated PDK1 (Homo sapiens (Human), UniProt O15530)
Assay: PDK1 kinase assay (coupled PDK1/AKT/FAM-crosstide, IMAP)
Type: biochemical
Conditions: 0.5 nM phosphorylated PDK1, 24 μM ATP; read-out: Inhibition of phospo-PDK1 in vitro IC50

O=C(NC(COc1ccc2[nH]c(=O)[nH]c2c1)c1cccnc1)c1cccn(Cc2cc(F)c(F)c(F)c2)c1=O (stereo not shown) [Cpd 163]
IC50: < 500 nM
